## Antibody variant affinities, Ab-14 light chain, assay B

All variants were tested on one target, the spike HR2 peptide PDVDLGDISGINAS (SARS-CoV-2).

Each scFv is VH, the linker GGGGSGGGGSGGGGS, VL, as in the parent Ab-14, and differs from it in the CDRs of the light chain only.
VH: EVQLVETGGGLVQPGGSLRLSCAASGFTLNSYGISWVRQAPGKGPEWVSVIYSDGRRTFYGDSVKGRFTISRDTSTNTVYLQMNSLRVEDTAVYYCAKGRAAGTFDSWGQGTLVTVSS
VL: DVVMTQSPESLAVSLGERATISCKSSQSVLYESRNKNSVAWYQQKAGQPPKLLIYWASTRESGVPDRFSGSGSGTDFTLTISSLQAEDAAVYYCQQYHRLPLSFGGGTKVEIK

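Phage display of a naive human antibody library on the peptide gave the parent. The variants were designed computationally from a first round of random CDR variants and then made and measured. Their group label is 14L_GP_Gibbs (GP: Gaussian process model; Gibbs: Gibbs sampling; a sequence that several methods proposed may carry one label only). In AlphaSeq, yeast of one mating type display the scFv and yeast of the other type display the target. Mating (16 h, 30 °C) was followed by selection of diploids and sequencing of their barcodes. The ratio of observed to expected reads was calibrated, replicate by replicate, on BCL2-family standards whose Kd was known from biolayer interferometry. There are six technical replicates.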

Each variant is given by its three light chain CDRs, as the data file delimits them; those of the parent are KSSQSVLYESRNKNSVA, WASTRES, QQYHRLPLS.
Scale: log10 of Kd in nM, estimated from mating counts; low values are strong binders.

CDR-L1,CDR-L2,CDR-L3,"log10 Kd, replicates",control signals
KLVQQHLYESRNKNSVA,EASTREQ,QQYHRLPLS,0.25 / 0.61 / 0.27 / 0.26 / 0.29 / 0.42,0 of 18
KWSQSVLMESMLVNSVA,NASQRES,QQYHRLPLS,0.12 / 0.30 / 0.34 / 0.14 / -0.09 / 0.61,0 of 18
KLSGSDLYESRNSNSVA,HGSTRES,QDYHRLPLS,0.29 / 0.17 / 0.53 / 0.32 / 0.00 / 0.29,1 of 18 (1.94)
KLSTSVLYEDRNCNAVA,AASTREE,QQYHRLPLS,0.38 / 0.07 / 0.05 / 0.11 / -0.19 / 0.14,0 of 18
KVMQSMLYESRNKNSVA,HASMREQ,QQYHRLPLQ,0.21 / 0.07 / 0.00 / -0.25 / -0.25 / 0.21,0 of 18
KLQQSWLYLSRNHNAVA,QASQRCS,QDYHRLPLS,0.50 / 0.81 / 0.72 / 0.59 / 0.42 / 0.54,0 of 18
KLSTSVLYESRMANAVA,AASTREE,QQYHRLPLS,-0.39 / -0.62 / -0.67 / -0.79 / -0.75 / -0.44,1 of 18 (4.01)
KASQSEPYEDRNKNSVA,NASYRCS,QQYHRLPLS,0.80 / 0.41 / 0.19 / 0.53 / 0.27 / 0.41,0 of 18
KCDQWVFYGDRNKNSVA,NASTRES,QQYHRLPLS,0.70 / 0.18 / 0.42 / 0.06 / 0.21 / 0.61,0 of 18
KISQSWLYESRNSNSVA,NASTREL,QDYHRLPLS,0.28 / 0.10 / 0.03 / 0.05 / 0.18 / 0.29,0 of 18
MYSQSYLGEQRNKNSVA,NASTREE,QQYHRLPLS,0.40 / 0.63 / 0.32 / 0.57 / 0.80 / 0.80,0 of 18
KWSFSVSGESRNKNSVA,DASTRES,QQYERLPLS,-0.48 / -0.33 / -0.44 / -0.45 / -0.60 / -0.13,1 of 18 (2.27)
KYDFSVLEESRNPNSVA,NASTREE,QDYHRLPLS,0.45 / 0.63 / 0.61 / 0.31 / 0.40 / 0.85,2 of 18 (4.22)
KLSQSQLYESRNKNNVA,SASTREM,QQYHRLPLS,-0.06 / -0.03 / -0.29 / -0.23 / -0.08 / -0.04,2 of 18 (3.31)
KLSQSQDYESRNSKSVA,DASTRLS,QQYHRLPLS,0.07 / -0.11 / -0.21 / -0.24 / -0.17 / 0.30,0 of 18
KLPQSMLYESRNWNSVA,QASTRES,QQYHRLPLT,-0.13 / -0.13 / -0.01 / -0.28 / -0.28 / 0.04,1 of 18 (1.79)
KVSQSQLYEWRNMNSVA,NASTREM,QQYHRLPLI,0.45 / 0.19 / 0.22 / 0.17 / 0.23 / 0.30,1 of 18 (3.00)
KVPQSMLYESRNANSVA,NASTRLS,QQYHRLPLS,-0.15 / 0.08 / -0.34 / -0.17 / -0.17 / 0.14,1 of 18 (3.89)
KQQISVDQESRQKNSVA,NASTREE,QQYHRLPLS,0.06 / -0.25 / -0.30 / -0.19 / -0.22 / 0.14,1 of 18 (2.13)
KSDQSHLYGSRNKNSVA,EASERES,QQYHRLPLS,0.16 / -0.11 / -0.02 / -0.10 / -0.13 / -0.07,1 of 18 (3.39)
KVQQSMLYESRNKNNVA,AASDRES,QQYHRLPLS,0.19 / -0.02 / -0.32 / -0.18 / -0.13 / 0.28,1 of 18 (1.67)
KMSQSELYEDRNSNAVA,QASQRMS,QQYHRLPLS,0.01 / -0.21 / -0.18 / -0.66 / -0.18 / -0.21,0 of 18
KLMWSVMLESRNKNSVA,QASTRME,QQYHRLPLS,0.50 / 0.32 / 0.62 / 0.50 / 0.39 / 0.75,0 of 18
KLSNSVLYQSRNKNSVA,NASTRYS,QQYHRLPLS,-0.19 / -0.30 / -0.42 / -0.48 / -0.35 / -0.28,0 of 18
KSPGSNLYESRNLNSVA,KASTRLQ,QQYHRLPLS,0.30 / 0.57 / 0.56 / 0.18 / 0.46 / 0.79,2 of 18 (2.37)
KISQLVLYEDRNKNSVA,NANTRES,QQYHRLPLS,-0.18 / -0.36 / -0.22 / -0.25 / -0.42 / -0.29,1 of 18 (3.40)
KLEQSGGYEQRNKNSVA,EASTRED,QQYHRLPLS,-0.06 / 0.02 / -0.38 / -0.30 / -0.26 / 0.08,0 of 18
KFSQQVLYESRAMNSVA,DASQRLS,QQYHRLPLS,-0.26 / -0.21 / -0.40 / -0.37 / -0.44 / 0.02,1 of 18 (1.55)
KYSQLNLYEQRNFNSVA,NASYRES,QQYHRLPLS,0.14 / -0.22 / -0.07 / 0.06 / 0.07 / 0.15,1 of 18 (1.50)
KLEQSVGYEQRNKNSVA,EASTRED,QQYHRLPLS,1.52 / 0.31 / 1.25 / 0.39 / 0.31 / 0.53,1 of 18 (1.58)
KLSQSDNYESRNHNSVA,HASTRSS,QQYHRLPLS,0.49 / 0.36 / 0.33 / 0.18 / 0.29 / 0.48,7 of 18 (3.25)
KLSCSWLMESRNSNSVA,HASKRES,QDYHRLPLS,0.75 / 0.73 / 0.65 / 0.64 / 0.56 / 0.62,1 of 18 (2.26)

The 3 strongest on average among those seen in every replicate, once more:

CDR-L1	CDR-L2	CDR-L3	log10 Kd, replicates	control signals
KLSTSVLYESRMANAVA	AASTREE	QQYHRLPLS	-0.39 / -0.62 / -0.67 / -0.79 / -0.75 / -0.44	1 of 18 (4.01)
KWSFSVSGESRNKNSVA	DASTRES	QQYERLPLS	-0.48 / -0.33 / -0.44 / -0.45 / -0.60 / -0.13	1 of 18 (2.27)
KLSNSVLYQSRNKNSVA	NASTRYS	QQYHRLPLS	-0.19 / -0.30 / -0.42 / -0.48 / -0.35 / -0.28	0 of 18

Values of this round are not directly comparable with the first-round values of the same sequences.
The parent sequence was in this pool as ten entries: three were never detected, three once, and four in most replicates, with averages from 0.34 to 2.37.
Nonspecific signal, from three strains lacking the peptide, appeared in 4% of pairings of all light chain designs, centred on 2.64 (5% of these signals below 1.59); values are not corrected for it. The control count says in how many pairings with the empty strains this scFv gave a signal, with their mean in brackets.
In the paper, a design with two or fewer of six values counts as a poor binder.

The measurements come from Li et al. 2023 (doi:10.1038/s41467-023-39022-2) through the FLAb antibody collection.